Here are results for one molecule from patent publication US7462695B2, “Insect chymotrypsin and inhibitors thereof” (Hexima Limited, priority 2003, dated 2008).

Molecules are shown by their SMILES.

This assay has as its target bovine chymotrypsin (Bos taurus, UniProt P00766). As to the kind of experiment: Inhibition of bovine chymotrypsin. The format is biochemical. The conditions noted are these: at maximum concentration tested; 100 ng bovine chymotrypsin; pH 10. Here is the method:
Several proteinase inhibitors were tested for their ability to inhibit the activity of the insensitive chymotrypsins. The buffer used for all assays was 500 mM CAPS, 75 mM NaCl, 2.5 mM MgCl2 at pH 10.

As for `O=S(=O)(F)Cc1ccccc1` [PMSF, phenylmethyl sulphonyl fluoride, reference compound], the “% Inhibition BC” value is on record as 100%.
